Source: US12616739B2, “GLP-1 prodrugs and uses thereof” (Novo Nordisk A/S, priority 2020, dated 2026)

Experiment: Prodrug to drug conversion half-life in vitro, PBS pH 7.4, 37° C.
Assay type: physicochemical
Method: General Methods for Measuring Conversion Half-Life
The assay was performed to investigate the conversion half-life of prodrug to drug of the prodrugs of the invention.
Peptide stock solutions were prepared by dissolving freeze-dried powder in PBS buffer to a target of 200 μM. PBS-buffer was Dulbecco's Phosphate Buffered Saline without CaCl2 and MgCl2, gibco 14190-094 adjusted to pH=7.4. The pH of the peptide stock solutions was adjusted to 7.4 with 0.02 M HCl or 0.02M NaOH. Samples were filled in Agilent HPLC vials with fixed insert. Vials were capped to prevent evaporation. The HPLC vials were incubated at 37° C. and samples were withdrawn at different time points over a period of 2 weeks, flash frozen at −80° C., and stored at −20° C. until analysis.
Sample analysis was carried out using UPLC coupled to UV detection at 215 nm and MS (UPLC-UV-MS). One μl of sample was injected on to a Waters Acquity UPLC with a flow-through-needle injection system and on to a Waters Acquity CSH C18 column (1*150 mm), with a particle size of 1.7 μm and held at 55° C. A flow-rate of 100 μl/min was delivered with a Binary solvent manager pump having 0.1% formic acid in water as solvent A and 0.1% formic acid in acetonitrile as solvent B. Gradient elution was carried out using 15-32% B from 0 to 4 min followed by 32 to 48% B from 4 to 54 min.
The identity of the prodrug was confirmed by MS and the peak purity, area %, from the UV signal at 215 nm was plotted as the natural logarithm against time and the slope (k) was used to calculate the first order half-life (T½)=T½=Ln(2)/k.

half-life	Structure (SMILES)
106 h	CC[C@H](C)[C@H](NC(=O)[C@H](Cc1ccccc1)NC(=O)[C@H](CCC(=O)O)NC(=O)[C@H](CCCCNC(=O)COCCOCCNC(=O)COCCOCCNC(=O)CC[C@H](NC(=O)CCCCCCCCCCCCCCCCC(=O)O)C(=O)O)NC(=O)[C@H](C)NC(=O)[C@H](C)NC(=O)[C@H](CCC(N)=O)NC(=O)CNC(=O)[C@H](CCC(=O)O)NC(=O)[C@H](CC(C)C)NC(=O)[C@H](Cc1ccc(O)cc1)NC(=O)[C@H](CO)NC(=O)[C@H](CO)NC(=O)[C@@H](NC(=O)[C@H](CC(=O)O)NC(=O)[C@H](CO)NC(=O)[C@@H](NC(=O)[C@H](Cc1ccccc1)NC(=O)[C@@H](NC(=O)CNC(=O)[C@H](CCC(=O)O)NC(=O)C(C)(C)NC(=O)[C@H](Cc1c[nH]cn1)NC(=O)CN(CCNC(=O)CC[C@H](NC(=O)CCCCCCCCCCCCCCC(=O)O)C(=O)O)C(=O)CN)[C@@H](C)O)[C@@H](C)O)C(C)C)C(=O)N[C@@H](C)C(=O)N[C@@H](Cc1c[nH]c2ccccc12)C(=O)N[C@@H](CC(C)C)C(=O)N[C@H](C(=O)N[C@@H](CCCNC(=N)N)C(=O)NCC(=O)N[C@@H](CCCNC(=N)N)C(=O)NCC(=O)O)C(C)C [Chem. 14, Gly-N^α-2-[[(4S)-4-carboxy-4-(15-carboxypentadecanoylamino)butanoyl]amino]ethyl-Gly-semaglutide]
101 h	CC[C@H](C)[C@H](NC(=O)[C@H](Cc1ccccc1)NC(=O)[C@H](CCC(=O)O)NC(=O)[C@H](CCCCNC(=O)COCCOCCNC(=O)COCCOCCNC(=O)CC[C@H](NC(=O)CCCCCCCCCCCCCCCCC(=O)O)C(=O)O)NC(=O)[C@H](C)NC(=O)[C@H](C)NC(=O)[C@H](CCC(N)=O)NC(=O)CNC(=O)[C@H](CCC(=O)O)NC(=O)[C@H](CC(C)C)NC(=O)[C@H](Cc1ccc(O)cc1)NC(=O)[C@H](CO)NC(=O)[C@H](CO)NC(=O)[C@@H](NC(=O)[C@H](CC(=O)O)NC(=O)[C@H](CO)NC(=O)[C@@H](NC(=O)[C@H](Cc1ccccc1)NC(=O)[C@@H](NC(=O)CNC(=O)[C@H](CCC(=O)O)NC(=O)C(C)(C)NC(=O)[C@H](Cc1c[nH]cn1)NC(=O)CN(CCCCNC(=O)CC[C@H](NC(=O)CCCCCCCCCCCCCCCCC(=O)O)C(=O)O)C(=O)CN)[C@@H](C)O)[C@@H](C)O)C(C)C)C(=O)N[C@@H](C)C(=O)N[C@@H](Cc1c[nH]c2ccccc12)C(=O)N[C@@H](CC(C)C)C(=O)N[C@H](C(=O)N[C@@H](CCCNC(=N)N)C(=O)NCC(=O)N[C@@H](CCCNC(=N)N)C(=O)NCC(=O)O)C(C)C [Chem. 15, Gly-N^α-4-[[(4S)-4-carboxy-4-(17-carboxyheptadecanoylamino)butanoyl]amino]butyl-Gly-semaglutide]
113 h	CC[C@H](C)[C@H](NC(=O)[C@H](Cc1ccccc1)NC(=O)[C@H](CCC(=O)O)NC(=O)[C@H](CCCCNC(=O)COCCOCCNC(=O)COCCOCCNC(=O)CC[C@H](NC(=O)CCCCCCCCCCCCCCCCC(=O)O)C(=O)O)NC(=O)[C@H](C)NC(=O)[C@H](C)NC(=O)[C@H](CCC(N)=O)NC(=O)CNC(=O)[C@H](CCC(=O)O)NC(=O)[C@H](CC(C)C)NC(=O)[C@H](Cc1ccc(O)cc1)NC(=O)[C@H](CO)NC(=O)[C@H](CO)NC(=O)[C@@H](NC(=O)[C@H](CC(=O)O)NC(=O)[C@H](CO)NC(=O)[C@@H](NC(=O)[C@H](Cc1ccccc1)NC(=O)[C@@H](NC(=O)CNC(=O)[C@H](CCC(=O)O)NC(=O)C(C)(C)NC(=O)[C@H](Cc1c[nH]cn1)NC(=O)CN(CCNC(=O)CC[C@H](NC(=O)CCCCCCCCCCCCCCCCC(=O)O)C(=O)O)C(=O)CN)[C@@H](C)O)[C@@H](C)O)C(C)C)C(=O)N[C@@H](C)C(=O)N[C@@H](Cc1c[nH]c2ccccc12)C(=O)N[C@@H](CC(C)C)C(=O)N[C@H](C(=O)N[C@@H](CCCNC(=N)N)C(=O)NCC(=O)N[C@@H](CCCNC(=N)N)C(=O)NCC(=O)O)C(C)C [Chem. 16, Gly-N^α-2-[[(4S)-4-carboxy-4-(17-carboxyheptadecanoylamino)butanoyl]amino]ethyl-Gly-semaglutide]
106 h	CC[C@H](C)[C@H](NC(=O)[C@H](Cc1ccccc1)NC(=O)[C@H](CCC(=O)O)NC(=O)[C@H](CCCCNC(=O)COCCOCCNC(=O)COCCOCCNC(=O)CC[C@H](NC(=O)CCCCCCCCCCCCCCCCC(=O)O)C(=O)O)NC(=O)[C@H](C)NC(=O)[C@H](C)NC(=O)[C@H](CCC(N)=O)NC(=O)CNC(=O)[C@H](CCC(=O)O)NC(=O)[C@H](CC(C)C)NC(=O)[C@H](Cc1ccc(O)cc1)NC(=O)[C@H](CO)NC(=O)[C@H](CO)NC(=O)[C@@H](NC(=O)[C@H](CC(=O)O)NC(=O)[C@H](CO)NC(=O)[C@@H](NC(=O)[C@H](Cc1ccccc1)NC(=O)[C@@H](NC(=O)CNC(=O)[C@H](CCC(=O)O)NC(=O)C(C)(C)NC(=O)[C@H](Cc1c[nH]cn1)NC(=O)CN(CCNC(=O)CC[C@H](NC(=O)CCCCCCCCCCCCC(=O)O)C(=O)O)C(=O)CN)[C@@H](C)O)[C@@H](C)O)C(C)C)C(=O)N[C@@H](C)C(=O)N[C@@H](Cc1c[nH]c2ccccc12)C(=O)N[C@@H](CC(C)C)C(=O)N[C@H](C(=O)N[C@@H](CCCNC(=N)N)C(=O)NCC(=O)N[C@@H](CCCNC(=N)N)C(=O)NCC(=O)O)C(C)C [Chem. 17, Gly-N^α-2-[[(4S)-4-carboxy-4-(13-carboxytridecanoylamino)butanoyl]amino]ethyl-Gly-semaglutide]
88.8 h	CC[C@H](C)[C@H](NC(=O)[C@H](Cc1ccccc1)NC(=O)[C@H](CCC(=O)O)NC(=O)[C@H](CCCCNC(=O)COCCOCCNC(=O)COCCOCCNC(=O)CC[C@H](NC(=O)CCCCCCCCCCCCCCCCC(=O)O)C(=O)O)NC(=O)[C@H](C)NC(=O)[C@H](C)NC(=O)[C@H](CCC(N)=O)NC(=O)CNC(=O)[C@H](CCC(=O)O)NC(=O)[C@H](CC(C)C)NC(=O)[C@H](Cc1ccc(O)cc1)NC(=O)[C@H](CO)NC(=O)[C@H](CO)NC(=O)[C@@H](NC(=O)[C@H](CC(=O)O)NC(=O)[C@H](CO)NC(=O)[C@@H](NC(=O)[C@H](Cc1ccccc1)NC(=O)[C@@H](NC(=O)CNC(=O)[C@H](CCC(=O)O)NC(=O)C(C)(C)NC(=O)[C@H](Cc1c[nH]cn1)NC(=O)CN(CCNC(=O)COCCOCCNC(=O)COCCOCCNC(=O)CC[C@H](NC(=O)CCCCCCCCCCCCCCC(=O)O)C(=O)O)C(=O)CN)[C@@H](C)O)[C@@H](C)O)C(C)C)C(=O)N[C@@H](C)C(=O)N[C@@H](Cc1c[nH]c2ccccc12)C(=O)N[C@@H](CC(C)C)C(=O)N[C@H](C(=O)N[C@@H](CCCNC(=N)N)C(=O)NCC(=O)N[C@@H](CCCNC(=N)N)C(=O)NCC(=O)O)C(C)C [Chem. 19, Gly-N^α-2-[[2-[2-[2-[[2-[2-[2-[[(4S)-4-carboxy-4-(15-carboxypentadecanoylamino)butanoyl]amino]ethoxy]ethoxy]acetyl]amino]ethoxy]ethoxy]acetyl]amino]ethyl-Gly-semaglutide]
134 h	CC[C@H](C)[C@H](NC(=O)[C@H](Cc1ccccc1)NC(=O)[C@H](CCC(=O)O)NC(=O)[C@H](CCCCNC(=O)COCCOCCNC(=O)COCCOCCNC(=O)CC[C@H](NC(=O)CCCCCCCCCCCCCCCCC(=O)O)C(=O)O)NC(=O)[C@H](C)NC(=O)[C@H](C)NC(=O)[C@H](CCC(N)=O)NC(=O)CNC(=O)[C@H](CCC(=O)O)NC(=O)[C@H](CC(C)C)NC(=O)[C@H](Cc1ccc(O)cc1)NC(=O)[C@H](CO)NC(=O)[C@H](CO)NC(=O)[C@@H](NC(=O)[C@H](CC(=O)O)NC(=O)[C@H](CO)NC(=O)[C@@H](NC(=O)[C@H](Cc1ccccc1)NC(=O)[C@@H](NC(=O)CNC(=O)[C@H](CCC(=O)O)NC(=O)C(C)(C)NC(=O)[C@H](Cc1c[nH]cn1)NC(=O)CN(CCNC(=O)CC[C@H](NC(=O)CC[C@H](NC(=O)CC[C@H](NC(=O)CCCCCCCCCCCCCCC(=O)O)C(=O)O)C(=O)O)C(=O)O)C(=O)CN)[C@@H](C)O)[C@@H](C)O)C(C)C)C(=O)N[C@@H](C)C(=O)N[C@@H](Cc1c[nH]c2ccccc12)C(=O)N[C@@H](CC(C)C)C(=O)N[C@H](C(=O)N[C@@H](CCCNC(=N)N)C(=O)NCC(=O)N[C@@H](CCCNC(=N)N)C(=O)NCC(=O)O)C(C)C [Chem. 20, Gly-N^α-2-[[(4S)-4-carboxy-4-[[(4S)-4-carboxy-4-[[(4S)-4-carboxy-4-(15-carboxypentadecanoylamino)butanoyl]amino]butanoyl]amino]butanoyl]amino]ethyl-Gly-semaglutide]
93.6 h	CC[C@H](C)[C@H](NC(=O)[C@H](Cc1ccccc1)NC(=O)[C@H](CCC(=O)O)NC(=O)[C@H](CCCCNC(=O)COCCOCCNC(=O)COCCOCCNC(=O)CC[C@H](NC(=O)CCCCCCCCCCCCCCCCC(=O)O)C(=O)O)NC(=O)[C@H](C)NC(=O)[C@H](C)NC(=O)[C@H](CCC(N)=O)NC(=O)CNC(=O)[C@H](CCC(=O)O)NC(=O)[C@H](CC(C)C)NC(=O)[C@H](Cc1ccc(O)cc1)NC(=O)[C@H](CO)NC(=O)[C@H](CO)NC(=O)[C@@H](NC(=O)[C@H](CC(=O)O)NC(=O)[C@H](CO)NC(=O)[C@@H](NC(=O)[C@H](Cc1ccccc1)NC(=O)[C@@H](NC(=O)CNC(=O)[C@H](CCC(=O)O)NC(=O)C(C)(C)NC(=O)[C@H](Cc1c[nH]cn1)NC(=O)CN(CCCCNC(=O)CC[C@H](NC(=O)CCCCCCCCCCCCCCC(=O)O)C(=O)O)C(=O)CN)[C@@H](C)O)[C@@H](C)O)C(C)C)C(=O)N[C@@H](C)C(=O)N[C@@H](Cc1c[nH]c2ccccc12)C(=O)N[C@@H](CC(C)C)C(=O)N[C@H](C(=O)N[C@@H](CCCNC(=N)N)C(=O)NCC(=O)N[C@@H](CCCNC(=N)N)C(=O)NCC(=O)O)C(C)C [Chem. 21, Gly-N^α-4-[[(4S)-4-carboxy-4-(15-carboxypentadecanoylamino)butanoyl]amino]butyl-Gly-semaglutide]
